In experiment [1] the target is T1, human CB1 receptor (hCB1) (Homo sapiens, UniProt P21554). Put plainly: [3H]-CP55940 competition, membranes. The experiment is classed as binding.
For experiment [2], the target named is T2, mouse CB2 receptor (mCB2) (Mus musculus, UniProt P47936). Put plainly: cAMP assay, CHO cells. The experiment is classed as cell-based. On the technique in general: cAMP levels reflect the balance of adenylyl cyclase and phosphodiesterase activity.
The target of experiment [3] is T2, mouse CB2 receptor (mCB2). Briefly: [3H]-CP55940 competition, membranes. Format: binding.
The target in experiment [4] is human CB2 receptor (hCB2) (Homo sapiens, UniProt P34972). Put plainly: [3H]-CP55940 competition, membranes. The experiment is classed as binding.
For experiment [5], the target named is T1, human CB1 receptor (hCB1). Briefly: cAMP assay, CHO cells. Format: cell-based.

The chains behind the UniProt entries cited, without tags or fusion partners.
UniProt P21554, whole entry: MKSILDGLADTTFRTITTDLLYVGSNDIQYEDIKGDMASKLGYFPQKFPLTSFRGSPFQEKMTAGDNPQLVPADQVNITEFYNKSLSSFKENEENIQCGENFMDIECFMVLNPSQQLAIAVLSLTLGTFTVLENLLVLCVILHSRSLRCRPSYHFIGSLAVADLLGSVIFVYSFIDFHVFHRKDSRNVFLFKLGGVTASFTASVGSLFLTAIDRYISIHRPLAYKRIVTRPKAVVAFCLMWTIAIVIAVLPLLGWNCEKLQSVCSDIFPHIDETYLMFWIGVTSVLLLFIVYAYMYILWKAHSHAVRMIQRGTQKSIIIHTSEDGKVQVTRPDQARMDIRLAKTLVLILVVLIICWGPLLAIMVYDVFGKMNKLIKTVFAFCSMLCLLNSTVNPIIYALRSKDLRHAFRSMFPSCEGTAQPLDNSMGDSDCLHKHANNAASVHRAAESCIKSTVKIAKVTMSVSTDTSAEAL
UniProt P47936, whole entry: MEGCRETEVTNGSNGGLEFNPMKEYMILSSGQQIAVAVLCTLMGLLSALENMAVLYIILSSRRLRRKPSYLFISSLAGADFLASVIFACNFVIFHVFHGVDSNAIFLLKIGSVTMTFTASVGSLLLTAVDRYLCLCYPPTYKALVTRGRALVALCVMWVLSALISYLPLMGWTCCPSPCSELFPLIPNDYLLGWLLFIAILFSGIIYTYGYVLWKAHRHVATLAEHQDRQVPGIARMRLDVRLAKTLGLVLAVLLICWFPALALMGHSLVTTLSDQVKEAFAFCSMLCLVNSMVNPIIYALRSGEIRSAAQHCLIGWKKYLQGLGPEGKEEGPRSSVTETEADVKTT
UniProt P34972, whole entry: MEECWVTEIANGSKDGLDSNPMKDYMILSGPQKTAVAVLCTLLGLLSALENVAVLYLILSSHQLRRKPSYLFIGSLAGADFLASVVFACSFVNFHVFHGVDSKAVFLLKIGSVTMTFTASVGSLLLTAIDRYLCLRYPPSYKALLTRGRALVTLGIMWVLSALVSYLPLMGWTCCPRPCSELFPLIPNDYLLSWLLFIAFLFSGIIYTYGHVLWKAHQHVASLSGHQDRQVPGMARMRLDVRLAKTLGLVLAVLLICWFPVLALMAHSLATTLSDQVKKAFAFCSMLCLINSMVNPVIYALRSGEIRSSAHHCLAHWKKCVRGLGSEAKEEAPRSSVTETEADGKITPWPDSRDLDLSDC

These results are taken from article doi:10.1101/2020.11.09.375162v1 (biorxiv, 2020).

The pKi is the negative decadic logarithm of the Ki, by convention in mol/L.

Turning to `CC1(F)CN(c2ccc(C(=O)N3CC(F)(F)C[C@H]3C(N)=O)nc2OCC2CC2)C1`, the negative-log Ki (pKi) in experiment [1] was less than 5. In addition, in experiment [2], the “cAMP pEC50” value is given as less than 5.
As for `CC(C)(C)C(NC(=O)c1cc(OCC2CC2)c(C2CC2)cn1)c1nccs1` (centres unmarked), the negative-log Ki (pKi) in experiment [3] worked out at 9.21; in experiment [4], 7.65. The “cAMP pEC50” value in experiment [5] is reported as less than 5.
